Cyclic peptide permeability, from CycPeptMPDB

Values of Kelly et al. 2021, doi:10.1021/jacs.0c06115, as listed in CycPeptMPDB.

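The data file gives no further conditions (lipid, pH, time, direction or concentration), and values from different papers need not be comparable. The list need not hold all peptides of the study. Peptides that the database sets to -10, its floor, are left out.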

PAMPA is the parallel artificial membrane permeability assay, which has no cells and reads passive diffusion. Permeability is given as log10 of P in cm/s; higher (less negative) is more permeable.

The entry for CC(=O)N1CCC[C@@H]1C(=O)N(C)[C@H](CC(C)C)C(=O)N[C@@H]1C(=O)N[C@@H](CC(C)C)C(=O)N(C)[C@@H](CC(C)C)C(=O)N[C@@H](CC(C)C)C(=O)N(C)[C@@H](C)C(=O)N[C@H](CC(C)C)C(=O)N2CCC[C@@H]2C(=O)O[C@@H]1C lists PAMPA -5.96 (log10 cm/s).
The entry for CC(=O)N1CCC[C@H]1C(=O)N(C)[C@H](CC(C)C)C(=O)N[C@@H]1C(=O)N[C@H](CC(C)C)C(=O)N[C@@H](CC(C)C)C(=O)N(C)[C@@H](CC(C)C)C(=O)N(C)[C@H](C)C(=O)N[C@@H](CC(C)C)C(=O)N2CCC[C@H]2C(=O)O[C@@H]1C lists PAMPA -5.15 (log10 cm/s).
The entry for CC(=O)N1CCC[C@@H]1C(=O)N(C)[C@H](CC(C)C)C(=O)N[C@@H]1C(=O)N[C@@H](CC(C)C)C(=O)N(C)[C@@H](CC(C)C)C(=O)N(C)[C@@H](CC(C)C)C(=O)N[C@@H](C)C(=O)N[C@H](CC(C)C)C(=O)N2CCC[C@H]2C(=O)O[C@@H]1C lists PAMPA -6.47 (log10 cm/s).
The entry for CC(=O)N1CCC[C@@H]1C(=O)N(C)[C@@H](CC(C)C)C(=O)N[C@@H]1C(=O)N(C)[C@H](CC(C)C)C(=O)N[C@H](CC(C)C)C(=O)N[C@H](CC(C)C)C(=O)N[C@H](C)C(=O)N[C@@H](CC(C)C)C(=O)N2CCC[C@H]2C(=O)O[C@@H]1C lists PAMPA -6.05 (log10 cm/s).
The entry for CC(=O)N1CCC[C@@H]1C(=O)N(C)[C@H](CC(C)C)C(=O)N[C@@H]1C(=O)N[C@H](CC(C)C)C(=O)N[C@@H](CC(C)C)C(=O)N[C@H](CC(C)C)C(=O)N[C@H](C)C(=O)N[C@H](CC(C)C)C(=O)N2CCC[C@H]2C(=O)O[C@@H]1C lists PAMPA -6.96 (log10 cm/s).
The entry for CC(=O)N1CCC[C@H]1C(=O)N[C@@H]1C(=O)N[C@H](CC(C)C)C(=O)N(C)[C@@H](CC(C)C)C(=O)N[C@@H](CC(C)C)C(=O)N(C)[C@@H](CC(C)C)C(=O)N(C)[C@@H](C)C(=O)N[C@@H](CC(C)C)C(=O)N2CCC[C@@H]2C(=O)O[C@@H]1C lists PAMPA -5.32 (log10 cm/s).
The entry for CC(=O)N1CCC[C@H]1C(=O)N(C)[C@@H](CC(C)C)C(=O)N[C@@H]1C(=O)N(C)[C@H](CC(C)C)C(=O)N(C)[C@@H](CC(C)C)C(=O)N[C@H](CC(C)C)C(=O)N[C@@H](C)C(=O)N[C@H](CC(C)C)C(=O)N2CCC[C@H]2C(=O)O[C@@H]1C lists PAMPA -5.33 (log10 cm/s).
The entry for CC(=O)N1CCC[C@H]1C(=O)N(C)[C@H](CC(C)C)C(=O)N[C@@H]1C(=O)N[C@@H](CC(C)C)C(=O)N[C@H](CC(C)C)C(=O)N(C)[C@@H](CC(C)C)C(=O)N(C)[C@@H](C)C(=O)N[C@H](CC(C)C)C(=O)N2CCC[C@H]2C(=O)O[C@@H]1C lists PAMPA -6.00 (log10 cm/s).
The entry for CC(=O)N1CCC[C@H]1C(=O)N(C)[C@H](CC(C)C)C(=O)N[C@@H]1C(=O)N(C)[C@@H](CC(C)C)C(=O)N[C@H](CC(C)C)C(=O)N[C@H](CC(C)C)C(=O)N(C)[C@H](C)C(=O)N[C@H](CC(C)C)C(=O)N2CCC[C@@H]2C(=O)O[C@@H]1C lists PAMPA -6.14 (log10 cm/s).
The entry for CC(=O)N1CCC[C@H]1C(=O)N[C@@H]1C(=O)N(C)[C@H](CC(C)C)C(=O)N[C@H](CC(C)C)C(=O)N[C@@H](CC(C)C)C(=O)N[C@H](CC(C)C)C(=O)N(C)[C@H](C)C(=O)N[C@@H](CC(C)C)C(=O)N2CCC[C@@H]2C(=O)O[C@@H]1C lists PAMPA -6.13 (log10 cm/s).
The entry for CC(=O)N1CCC[C@H]1C(=O)N(C)[C@H](CC(C)C)C(=O)N[C@@H]1C(=O)N(C)[C@@H](CC(C)C)C(=O)N(C)[C@@H](CC(C)C)C(=O)N(C)[C@H](CC(C)C)C(=O)N(C)[C@H](C)C(=O)N[C@@H](CC(C)C)C(=O)N2CCC[C@@H]2C(=O)O[C@@H]1C lists PAMPA -5.17 (log10 cm/s).
The entry for CC(=O)N1CCC[C@H]1C(=O)N(C)[C@H](CC(C)C)C(=O)N[C@@H]1C(=O)N[C@@H](CC(C)C)C(=O)N(C)[C@@H](CC(C)C)C(=O)N[C@@H](CC(C)C)C(=O)N(C)[C@@H](C)C(=O)N[C@H](CC(C)C)C(=O)N2CCC[C@H]2C(=O)O[C@@H]1C lists PAMPA -5.93 (log10 cm/s).
The entry for CC(=O)N1CCC[C@H]1C(=O)N[C@@H]1C(=O)N[C@H](CC(C)C)C(=O)N[C@H](CC(C)C)C(=O)N(C)[C@H](CC(C)C)C(=O)N(C)[C@H](CC(C)C)C(=O)N(C)[C@H](C)C(=O)N[C@@H](CC(C)C)C(=O)N2CCC[C@@H]2C(=O)O[C@@H]1C lists PAMPA -4.64 (log10 cm/s).
The entry for CC(=O)N1CCC[C@H]1C(=O)N[C@@H]1C(=O)N[C@H](CC(C)C)C(=O)N(C)[C@H](CC(C)C)C(=O)N(C)[C@H](CC(C)C)C(=O)N[C@@H](CC(C)C)C(=O)N(C)[C@H](C)C(=O)N[C@@H](CC(C)C)C(=O)N2CCC[C@@H]2C(=O)O[C@@H]1C lists PAMPA -5.68 (log10 cm/s).
The entry for CC(=O)N1CCC[C@H]1C(=O)N(C)[C@@H](CC(C)C)C(=O)N[C@@H]1C(=O)N(C)[C@@H](CC(C)C)C(=O)N(C)[C@@H](CC(C)C)C(=O)N[C@@H](CC(C)C)C(=O)N(C)[C@H](C)C(=O)N[C@@H](CC(C)C)C(=O)N2CCC[C@H]2C(=O)O[C@@H]1C lists PAMPA -6.05 (log10 cm/s).
The entry for CC(=O)N1CCC[C@@H]1C(=O)N(C)[C@@H](CC(C)C)C(=O)N[C@@H]1C(=O)N(C)[C@H](CC(C)C)C(=O)N[C@@H](CC(C)C)C(=O)N[C@H](CC(C)C)C(=O)N(C)[C@H](C)C(=O)N[C@H](CC(C)C)C(=O)N2CCC[C@H]2C(=O)O[C@@H]1C lists PAMPA -5.90 (log10 cm/s).

Excerpt, the final 3 entries:

structure (SMILES)	PAMPA (log10 cm/s)
CC(=O)N1CCC[C@H]1C(=O)N[C@@H]1C(=O)N[C@H](CC(C)C)C(=O)N(C)[C@H](CC(C)C)C(=O)N(C)[C@H](CC(C)C)C(=O)N[C@@H](CC(C)C)C(=O)N(C)[C@H](C)C(=O)N[C@@H](CC(C)C)C(=O)N2CCC[C@@H]2C(=O)O[C@@H]1C	-5.68
CC(=O)N1CCC[C@H]1C(=O)N(C)[C@@H](CC(C)C)C(=O)N[C@@H]1C(=O)N(C)[C@@H](CC(C)C)C(=O)N(C)[C@@H](CC(C)C)C(=O)N[C@@H](CC(C)C)C(=O)N(C)[C@H](C)C(=O)N[C@@H](CC(C)C)C(=O)N2CCC[C@H]2C(=O)O[C@@H]1C	-6.05
CC(=O)N1CCC[C@@H]1C(=O)N(C)[C@@H](CC(C)C)C(=O)N[C@@H]1C(=O)N(C)[C@H](CC(C)C)C(=O)N[C@@H](CC(C)C)C(=O)N[C@H](CC(C)C)C(=O)N(C)[C@H](C)C(=O)N[C@H](CC(C)C)C(=O)N2CCC[C@H]2C(=O)O[C@@H]1C	-5.90